Experimental data from patent US20150148256A1, “BIOLUMINESCENCE IMAGING-BASED SCREENING ASSAY AND INHIBITORS OF ABCG2” (THE JOHNS HOPKINS UNIVERSITY, priority 2008, published 2015).

Amino acid sequences for entries named in this document (tags omitted). A change or cut given only in a name is not applied to a line headed by its entry.
UniProt Q9UNQ0: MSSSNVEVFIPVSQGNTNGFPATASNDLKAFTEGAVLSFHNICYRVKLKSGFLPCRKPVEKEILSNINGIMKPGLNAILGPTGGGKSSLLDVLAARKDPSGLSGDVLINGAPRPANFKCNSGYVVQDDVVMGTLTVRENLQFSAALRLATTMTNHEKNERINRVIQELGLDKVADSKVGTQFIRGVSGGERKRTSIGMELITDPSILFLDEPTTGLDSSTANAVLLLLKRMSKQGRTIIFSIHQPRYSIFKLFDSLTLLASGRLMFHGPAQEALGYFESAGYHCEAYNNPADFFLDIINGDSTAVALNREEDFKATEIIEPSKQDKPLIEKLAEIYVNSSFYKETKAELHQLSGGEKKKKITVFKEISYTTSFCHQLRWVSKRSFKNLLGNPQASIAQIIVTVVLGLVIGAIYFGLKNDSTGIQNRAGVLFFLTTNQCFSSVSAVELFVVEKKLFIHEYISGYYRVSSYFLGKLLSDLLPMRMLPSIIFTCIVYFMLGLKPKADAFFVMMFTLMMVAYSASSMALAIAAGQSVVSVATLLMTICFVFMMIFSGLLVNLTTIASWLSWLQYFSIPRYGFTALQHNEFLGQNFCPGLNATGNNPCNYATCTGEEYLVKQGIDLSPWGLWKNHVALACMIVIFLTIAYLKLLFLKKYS

Biological target: ABCG2 (Homo sapiens, UniProt Q9UNQ0)

In the case of C[C@]12CC[C@H](O)CC1=CC[C@@H]1[C@@H]2CC[C@]2(C)C(=O)CC[C@@H]12 [prasterone (DHEA), prasterone], the “Fold (BLI enhancement, S/B ratio over control)” value is reported as 2.5 fold.
